From patent US20230041197A1, “TREATMENT OF A DISEASE OF THE GASTROINTESTINAL TRACT WITH AN IMMUNOMODULATOR” (Progenity, Inc., priority 2018, published 2023) come the findings set out here.

For this data set the following is noted: mouse, in vivo.

The structures appear in SMILES notation. Structures can show the parent of a compound that is named as a salt.

As for `C[C@@H]1CCN(C(=O)CC#N)C[C@@H]1N(C)c1ncnc2[nH]ccc12` [tofacitinib citrate], the blood exposure entry is reported as “limited”.
